Our source for the Water solubility values is patent US20060292203A1, “Methods and compositions for the treatment of ocular disorders” (TargeGen, Inc., priority 2005, published 2006).

Bounds are passed on as bounds.

The conditions of the series: pH 5.

With Dexamethasone valerate, the Water solubility is on record as <<0.1 mg/mL.
